Tests used:
CRBN = CRBN (Homo sapiens, UniProt Q96SW2); assay: CRBN binding affinity by HTRF (CEREBLON BINDING kit); details: for IC50: read-out: HTRF IC50, human Cereblon WT GST-tagged protein, 3 hours at room temperature; for Inhibition Rate at 0.5 µM (%) / Inhibition Rate at 2 µM (%): CRBN binding, HTRF; for Inhibition Rate at 0.5 µM (%): compound at 0.5 µM; for Inhibition Rate at 2 µM (%): compound at 2 µM
IKZF2 = IKZF2 (Homo sapiens, UniProt Q96SW2+Q9UKS7); assay: Western blot assay of substrate protein degradation in hPBMCs; details: 24 hours treatment, compounds at 50 nM and 500 nM (concentration behind the class not stated)
GSPT1 = GSPT1 (Homo sapiens, UniProt P15170+Q96SW2); assay: as above; details: 24 hours treatment, compounds at 50 nM and 500 nM (concentration behind the class not stated)
WEE1 = WEE1 (Homo sapiens, UniProt P30291+Q96SW2); assay: as above; details: 24 hours treatment, compounds at 50 nM and 500 nM (concentration behind the class not stated)
CK1α = CK1α (Homo sapiens, UniProt P48729+Q96SW2); assay: as above; details: 24 hours treatment, compounds at 50 nM and 500 nM (concentration behind the class not stated)
IKZF1 = IKZF1 (Homo sapiens, UniProt Q13422+Q96SW2); assay: as above; details: 24 hours treatment, compounds at 50 nM and 500 nM (concentration behind the class not stated)
IKZF3 = IKZF3 (Homo sapiens, UniProt Q96SW2+Q9UKT9); assay: as above; details: 24 hours treatment, compounds at 50 nM and 500 nM (concentration behind the class not stated)

Amino acid sequences for entries named in this document (tags omitted).
UniProt Q96SW2, whole entry: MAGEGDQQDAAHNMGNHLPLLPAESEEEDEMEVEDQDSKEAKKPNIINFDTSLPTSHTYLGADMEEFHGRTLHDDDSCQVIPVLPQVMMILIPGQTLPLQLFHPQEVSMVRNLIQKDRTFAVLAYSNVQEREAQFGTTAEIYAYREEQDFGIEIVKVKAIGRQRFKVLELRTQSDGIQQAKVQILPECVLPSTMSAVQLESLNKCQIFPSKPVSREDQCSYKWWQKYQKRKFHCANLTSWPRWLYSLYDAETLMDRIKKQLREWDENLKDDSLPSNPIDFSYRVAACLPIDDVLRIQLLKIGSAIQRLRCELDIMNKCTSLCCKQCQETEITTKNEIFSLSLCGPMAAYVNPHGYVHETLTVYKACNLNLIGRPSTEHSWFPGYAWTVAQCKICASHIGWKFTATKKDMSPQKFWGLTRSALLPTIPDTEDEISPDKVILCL
UniProt Q9UKS7, whole entry: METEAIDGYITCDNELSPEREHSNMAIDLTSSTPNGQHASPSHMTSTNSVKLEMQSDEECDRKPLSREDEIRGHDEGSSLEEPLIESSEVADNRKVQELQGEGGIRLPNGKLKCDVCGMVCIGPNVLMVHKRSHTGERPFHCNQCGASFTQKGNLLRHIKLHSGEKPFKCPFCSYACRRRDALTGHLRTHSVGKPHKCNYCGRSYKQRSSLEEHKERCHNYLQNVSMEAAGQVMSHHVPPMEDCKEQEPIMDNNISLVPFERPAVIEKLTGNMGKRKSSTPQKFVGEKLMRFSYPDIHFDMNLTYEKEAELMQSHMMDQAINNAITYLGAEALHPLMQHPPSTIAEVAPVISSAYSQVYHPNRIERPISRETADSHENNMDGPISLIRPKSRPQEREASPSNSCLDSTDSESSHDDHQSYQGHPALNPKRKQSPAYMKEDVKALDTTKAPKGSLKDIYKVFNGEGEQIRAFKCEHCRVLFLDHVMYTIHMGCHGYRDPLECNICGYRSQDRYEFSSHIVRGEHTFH
UniProt P15170, whole entry: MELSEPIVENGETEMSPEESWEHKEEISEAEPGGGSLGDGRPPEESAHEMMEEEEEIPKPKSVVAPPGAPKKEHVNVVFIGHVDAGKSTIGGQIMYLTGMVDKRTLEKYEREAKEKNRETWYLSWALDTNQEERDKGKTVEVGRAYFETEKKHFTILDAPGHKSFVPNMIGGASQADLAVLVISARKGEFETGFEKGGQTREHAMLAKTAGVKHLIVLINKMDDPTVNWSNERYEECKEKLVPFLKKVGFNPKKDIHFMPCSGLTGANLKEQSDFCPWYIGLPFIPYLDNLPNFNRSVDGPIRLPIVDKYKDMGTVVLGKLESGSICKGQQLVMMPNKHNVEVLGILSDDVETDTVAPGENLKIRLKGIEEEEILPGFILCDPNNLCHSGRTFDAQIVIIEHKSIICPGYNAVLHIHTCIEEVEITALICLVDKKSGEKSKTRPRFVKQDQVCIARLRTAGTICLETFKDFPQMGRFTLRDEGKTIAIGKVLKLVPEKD
UniProt P30291, whole entry: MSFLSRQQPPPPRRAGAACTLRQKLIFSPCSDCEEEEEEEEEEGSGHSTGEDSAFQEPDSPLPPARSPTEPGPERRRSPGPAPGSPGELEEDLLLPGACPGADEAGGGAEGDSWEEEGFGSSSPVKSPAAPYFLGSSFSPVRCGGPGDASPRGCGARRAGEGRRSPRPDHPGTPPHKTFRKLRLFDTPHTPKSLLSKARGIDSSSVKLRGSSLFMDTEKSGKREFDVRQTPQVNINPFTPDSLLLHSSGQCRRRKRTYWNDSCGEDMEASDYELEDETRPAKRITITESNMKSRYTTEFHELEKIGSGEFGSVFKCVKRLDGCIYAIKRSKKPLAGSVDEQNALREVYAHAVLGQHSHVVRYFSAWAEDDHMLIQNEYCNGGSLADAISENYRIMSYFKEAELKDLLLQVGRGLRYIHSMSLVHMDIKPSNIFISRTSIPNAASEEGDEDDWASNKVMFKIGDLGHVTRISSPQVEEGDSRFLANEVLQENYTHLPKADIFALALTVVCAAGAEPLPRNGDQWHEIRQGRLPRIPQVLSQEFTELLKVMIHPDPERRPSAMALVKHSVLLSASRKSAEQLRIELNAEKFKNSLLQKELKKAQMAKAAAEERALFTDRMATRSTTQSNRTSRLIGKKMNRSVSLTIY
UniProt P48729, whole entry: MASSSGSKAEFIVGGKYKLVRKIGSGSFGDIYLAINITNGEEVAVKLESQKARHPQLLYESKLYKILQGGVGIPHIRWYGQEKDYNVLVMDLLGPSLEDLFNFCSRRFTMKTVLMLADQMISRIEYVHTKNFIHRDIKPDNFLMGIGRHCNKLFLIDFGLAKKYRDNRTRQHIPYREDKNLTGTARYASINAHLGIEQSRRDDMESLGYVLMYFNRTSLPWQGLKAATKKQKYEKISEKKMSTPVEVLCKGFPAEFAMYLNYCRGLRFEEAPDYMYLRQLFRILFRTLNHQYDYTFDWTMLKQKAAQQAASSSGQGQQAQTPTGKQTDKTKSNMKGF
UniProt Q13422, whole entry: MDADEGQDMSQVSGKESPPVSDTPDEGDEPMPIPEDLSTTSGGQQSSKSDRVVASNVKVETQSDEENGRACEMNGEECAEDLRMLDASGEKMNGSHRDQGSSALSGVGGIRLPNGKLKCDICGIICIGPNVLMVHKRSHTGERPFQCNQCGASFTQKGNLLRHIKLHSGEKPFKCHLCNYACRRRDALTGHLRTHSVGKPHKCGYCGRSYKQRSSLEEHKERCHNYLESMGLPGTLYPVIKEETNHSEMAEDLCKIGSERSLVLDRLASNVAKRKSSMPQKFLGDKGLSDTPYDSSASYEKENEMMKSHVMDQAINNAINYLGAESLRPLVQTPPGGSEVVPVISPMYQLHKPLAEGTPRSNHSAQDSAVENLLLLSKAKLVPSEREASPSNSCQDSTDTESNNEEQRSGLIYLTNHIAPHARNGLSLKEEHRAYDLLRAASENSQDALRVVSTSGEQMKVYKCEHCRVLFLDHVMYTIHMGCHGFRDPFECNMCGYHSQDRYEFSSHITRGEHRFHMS
UniProt Q9UKT9, whole entry: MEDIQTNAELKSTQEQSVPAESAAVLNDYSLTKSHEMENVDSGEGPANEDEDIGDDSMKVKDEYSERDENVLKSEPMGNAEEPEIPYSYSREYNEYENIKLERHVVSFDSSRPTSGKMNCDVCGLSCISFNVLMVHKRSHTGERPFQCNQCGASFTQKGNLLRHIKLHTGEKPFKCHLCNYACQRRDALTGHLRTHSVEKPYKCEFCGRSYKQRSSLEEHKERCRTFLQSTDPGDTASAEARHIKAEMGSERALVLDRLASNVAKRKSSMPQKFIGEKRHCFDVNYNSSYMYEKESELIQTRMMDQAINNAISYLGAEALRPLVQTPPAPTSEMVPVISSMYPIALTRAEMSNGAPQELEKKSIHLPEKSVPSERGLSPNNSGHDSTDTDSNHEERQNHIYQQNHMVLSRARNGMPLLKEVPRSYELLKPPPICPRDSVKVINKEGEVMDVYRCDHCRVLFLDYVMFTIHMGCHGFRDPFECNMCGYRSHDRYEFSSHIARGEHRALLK
UniProt Q16531, whole entry partner: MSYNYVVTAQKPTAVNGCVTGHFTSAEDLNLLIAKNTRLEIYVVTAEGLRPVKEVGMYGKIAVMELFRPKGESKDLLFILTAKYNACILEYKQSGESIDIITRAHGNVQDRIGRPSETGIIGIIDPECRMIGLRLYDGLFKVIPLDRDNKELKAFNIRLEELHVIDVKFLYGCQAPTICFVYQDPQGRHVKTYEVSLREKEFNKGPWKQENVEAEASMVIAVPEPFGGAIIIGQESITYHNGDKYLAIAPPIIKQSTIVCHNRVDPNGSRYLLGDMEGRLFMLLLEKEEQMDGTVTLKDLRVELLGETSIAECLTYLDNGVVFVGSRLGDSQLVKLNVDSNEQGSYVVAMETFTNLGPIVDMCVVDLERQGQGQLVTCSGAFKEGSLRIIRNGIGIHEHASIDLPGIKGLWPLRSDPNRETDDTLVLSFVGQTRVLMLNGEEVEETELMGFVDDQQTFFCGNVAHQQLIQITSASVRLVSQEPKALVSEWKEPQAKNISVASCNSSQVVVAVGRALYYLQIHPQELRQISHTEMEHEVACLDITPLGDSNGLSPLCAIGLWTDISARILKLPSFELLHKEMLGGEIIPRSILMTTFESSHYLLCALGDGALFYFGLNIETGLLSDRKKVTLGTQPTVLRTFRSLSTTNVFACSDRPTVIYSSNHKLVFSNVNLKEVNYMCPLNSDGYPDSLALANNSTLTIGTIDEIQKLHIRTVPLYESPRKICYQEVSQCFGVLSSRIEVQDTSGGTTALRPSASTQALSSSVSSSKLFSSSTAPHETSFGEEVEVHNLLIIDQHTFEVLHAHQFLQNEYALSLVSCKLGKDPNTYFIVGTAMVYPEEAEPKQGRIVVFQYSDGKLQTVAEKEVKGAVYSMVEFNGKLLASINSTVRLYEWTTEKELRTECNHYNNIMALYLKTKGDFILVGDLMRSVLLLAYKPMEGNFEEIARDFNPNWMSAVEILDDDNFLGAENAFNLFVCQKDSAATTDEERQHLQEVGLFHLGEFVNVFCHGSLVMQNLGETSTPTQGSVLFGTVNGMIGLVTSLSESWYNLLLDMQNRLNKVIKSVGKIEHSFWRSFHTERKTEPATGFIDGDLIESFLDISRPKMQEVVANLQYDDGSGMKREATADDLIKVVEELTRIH

O=C1CCC(N2Cc3cc(CN4CCC(N5CCN(c6cccc(Cl)c6Cl)CC5)CC4)ccc3C2=O)C(=O)N1 (centres unmarked)
IC50 (CRBN): 1000 to 1500 nM
substrate protein remaining % (IKZF2) (IKZF2): B (80%< substrate protein remaining %≤ 100%)
substrate protein remaining % (GSPT1) (GSPT1): B (80%< substrate protein remaining %≤ 100%)
substrate protein remaining % (WEE1) (WEE1): A (0% ≤ substrate protein remaining % ≤ 80%)
substrate protein remaining % (CK1a) (CK1α): B (80%< substrate protein remaining %≤ 100%)
substrate protein remaining % (IKZF 1) (IKZF1): A (0% ≤ substrate protein remaining % ≤ 80%)
substrate protein remaining % (IKZF3) (IKZF3): A (0% ≤ substrate protein remaining % ≤ 80%)

O=C1CCC(N2Cc3cc(C(=O)N4CCC(N5CCN(C(c6ccccc6)c6ccccc6)CC5)C(F)(F)C4)ccc3C2=O)C(=O)N1 (centres unmarked)
Inhibition Rate at 0.5 µM (%) (CRBN): a3 (30% < a3 ≤ 40%)
Inhibition Rate at 2 µM (%) (CRBN): a6 (60% < a6 ≤ 70%)
substrate protein remaining % (IKZF2) (IKZF2): B (80%< substrate protein remaining %≤ 100%)
substrate protein remaining % (GSPT1) (GSPT1): A (0% ≤ substrate protein remaining % ≤ 80%)
substrate protein remaining % (WEE1) (WEE1): A (0% ≤ substrate protein remaining % ≤ 80%)
substrate protein remaining % (CK1a) (CK1α): B (80%< substrate protein remaining %≤ 100%)
substrate protein remaining % (IKZF 1) (IKZF1): A (0% ≤ substrate protein remaining % ≤ 80%)
substrate protein remaining % (IKZF3) (IKZF3): B (80%< substrate protein remaining %≤ 100%)

O=C1CCC(N2Cc3ccc(C(=O)N4CCC(N5CCN(C(c6ccccc6)c6ccccn6)CC5)C(F)(F)C4)cc3C2=O)C(=O)N1 (centres unmarked)
Inhibition Rate at 0.5 µM (%) (CRBN): a3 (30% < a3 ≤ 40%)
Inhibition Rate at 2 µM (%) (CRBN): a6 (60% < a6 ≤ 70%)
substrate protein remaining % (IKZF2) (IKZF2): B (80%< substrate protein remaining %≤ 100%)
substrate protein remaining % (GSPT1) (GSPT1): A (0% ≤ substrate protein remaining % ≤ 80%)
substrate protein remaining % (WEE1) (WEE1): B (80%< substrate protein remaining %≤ 100%)
substrate protein remaining % (CK1a) (CK1α): B (80%< substrate protein remaining %≤ 100%)
substrate protein remaining % (IKZF 1) (IKZF1): B (80%< substrate protein remaining %≤ 100%)
substrate protein remaining % (IKZF3) (IKZF3): A (0% ≤ substrate protein remaining % ≤ 80%)

CC1(C)CCC(C(=O)N2CCN(C3CCN(C(=O)c4ccc5c(c4)C(=O)N(C4CCC(=O)NC4=O)C5=O)CC3(F)F)CC2)=C(c2ccc(Cl)cc2)C1 (centres unmarked)
Inhibition Rate at 0.5 µM (%) (CRBN): a3 (30% < a3 ≤ 40%)
Inhibition Rate at 2 µM (%) (CRBN): a6 (60% < a6 ≤ 70%)
substrate protein remaining % (IKZF2) (IKZF2): B (80%< substrate protein remaining %≤ 100%)
substrate protein remaining % (GSPT1) (GSPT1): A (0% ≤ substrate protein remaining % ≤ 80%)
substrate protein remaining % (WEE1) (WEE1): B (80%< substrate protein remaining %≤ 100%)
substrate protein remaining % (CK1a) (CK1α): B (80%< substrate protein remaining %≤ 100%)
substrate protein remaining % (IKZF 1) (IKZF1): B (80%< substrate protein remaining %≤ 100%)
substrate protein remaining % (IKZF3) (IKZF3): B (80%< substrate protein remaining %≤ 100%)

O=C1CCC(N2Cc3c(CN4CCC(N5CCN(c6noc7cc(F)ccc67)CC5)CC4)cccc3C2=S)C(=O)N1 (centres unmarked)
Inhibition Rate at 0.5 µM (%) (CRBN): a3 (30% < a3 ≤ 40%)
Inhibition Rate at 2 µM (%) (CRBN): a5 (53% < a5 ≤ 60%)
substrate protein remaining % (IKZF2) (IKZF2): B (80%< substrate protein remaining %≤ 100%)
substrate protein remaining % (GSPT1) (GSPT1): A (0% ≤ substrate protein remaining % ≤ 80%)
substrate protein remaining % (WEE1) (WEE1): B (80%< substrate protein remaining %≤ 100%)
substrate protein remaining % (CK1a) (CK1α): A (0% ≤ substrate protein remaining % ≤ 80%)
substrate protein remaining % (IKZF 1) (IKZF1): B (80%< substrate protein remaining %≤ 100%)
substrate protein remaining % (IKZF3) (IKZF3): B (80%< substrate protein remaining %≤ 100%)

O=C1CCC(N2Cc3cc(C(=O)N4CCC(N5CCN(C(c6ccccc6)c6ccccc6)CC5)CC4)cc(F)c3C2=O)C(=O)N1 (centres unmarked)
Inhibition Rate at 0.5 µM (%) (CRBN): a3 (30% < a3 ≤ 40%)
Inhibition Rate at 2 µM (%) (CRBN): a6 (60% < a6 ≤ 70%)
substrate protein remaining % (IKZF2) (IKZF2): B (80%< substrate protein remaining %≤ 100%)
substrate protein remaining % (GSPT1) (GSPT1): A (0% ≤ substrate protein remaining % ≤ 80%)
substrate protein remaining % (WEE1) (WEE1): B (80%< substrate protein remaining %≤ 100%)
substrate protein remaining % (CK1a) (CK1α): B (80%< substrate protein remaining %≤ 100%)
substrate protein remaining % (IKZF 1) (IKZF1): B (80%< substrate protein remaining %≤ 100%)
substrate protein remaining % (IKZF3) (IKZF3): B (80%< substrate protein remaining %≤ 100%)

O=C1CCC(N2Cc3ccc(CN4CCC(N5CCN(C(c6ccccc6)c6ccccn6)CC5)C(F)(F)C4)cc3C2=O)C(=O)N1 (centres unmarked)
Inhibition Rate at 0.5 µM (%) (CRBN): a3 (30% < a3 ≤ 40%)
Inhibition Rate at 2 µM (%) (CRBN): a7 (70% < a7 ≤80%)
substrate protein remaining % (IKZF2) (IKZF2): B (80%< substrate protein remaining %≤ 100%)
substrate protein remaining % (GSPT1) (GSPT1): A (0% ≤ substrate protein remaining % ≤ 80%)
substrate protein remaining % (WEE1) (WEE1): B (80%< substrate protein remaining %≤ 100%)
substrate protein remaining % (CK1a) (CK1α): A (0% ≤ substrate protein remaining % ≤ 80%)
substrate protein remaining % (IKZF 1) (IKZF1): B (80%< substrate protein remaining %≤ 100%)
substrate protein remaining % (IKZF3) (IKZF3): B (80%< substrate protein remaining %≤ 100%)

O=C1CCC(N2Cc3cc(CN4CCC(N5CCN(C(c6ccccc6)c6ccccc6)CC5)CC4)c(F)cc3C2=O)C(=O)N1 (centres unmarked)
IC50 (CRBN): 1000 to 1500 nM
substrate protein remaining % (IKZF2) (IKZF2): A (0% ≤ substrate protein remaining % ≤ 80%)
substrate protein remaining % (GSPT1) (GSPT1): A (0% ≤ substrate protein remaining % ≤ 80%)
substrate protein remaining % (WEE1) (WEE1): B (80%< substrate protein remaining %≤ 100%)
substrate protein remaining % (CK1a) (CK1α): B (80%< substrate protein remaining %≤ 100%)
substrate protein remaining % (IKZF 1) (IKZF1): B (80%< substrate protein remaining %≤ 100%)
substrate protein remaining % (IKZF3) (IKZF3): B (80%< substrate protein remaining %≤ 100%)

CC1(C)CCC(CN2CCN(C3CCN(C(=O)c4cccc5c4C(=O)N(C4CCC(=O)NC4=O)C5)CC3(F)F)CC2)=C(c2ccc(Cl)cc2)C1 (centres unmarked)
Inhibition Rate at 0.5 µM (%) (CRBN): a1 (10% < a1 ≤ 20%)
Inhibition Rate at 2 µM (%) (CRBN): a5 (53% < a5 ≤ 60%)
substrate protein remaining % (IKZF2) (IKZF2): B (80%< substrate protein remaining %≤ 100%)
substrate protein remaining % (GSPT1) (GSPT1): B (80%< substrate protein remaining %≤ 100%)
substrate protein remaining % (WEE1) (WEE1): B (80%< substrate protein remaining %≤ 100%)
substrate protein remaining % (CK1a) (CK1α): B (80%< substrate protein remaining %≤ 100%)
substrate protein remaining % (IKZF 1) (IKZF1): B (80%< substrate protein remaining %≤ 100%)
substrate protein remaining % (IKZF3) (IKZF3): A (0% ≤ substrate protein remaining % ≤ 80%)

O=C1CCC(N2Cc3c(ccc(CN4CCC(N5CCN(C(c6ccccc6)c6ccccc6)CC5)CC4)c3F)C2=O)C(=O)N1 (centres unmarked)
IC50 (CRBN): 500 to 1000 nM
substrate protein remaining % (IKZF2) (IKZF2): A (0% ≤ substrate protein remaining % ≤ 80%)
substrate protein remaining % (GSPT1) (GSPT1): A (0% ≤ substrate protein remaining % ≤ 80%)
substrate protein remaining % (WEE1) (WEE1): B (80%< substrate protein remaining %≤ 100%)
substrate protein remaining % (CK1a) (CK1α): A (0% ≤ substrate protein remaining % ≤ 80%)
substrate protein remaining % (IKZF 1) (IKZF1): B (80%< substrate protein remaining %≤ 100%)
substrate protein remaining % (IKZF3) (IKZF3): A (0% ≤ substrate protein remaining % ≤ 80%)

O=C1CCC(N2Cc3cc(CN4CCC(N5CCN(c6cccc(Cl)c6Cl)CC5)CC4)c(F)cc3C2=O)C(=O)N1 (centres unmarked)
IC50 (CRBN): 1000 to 1500 nM
substrate protein remaining % (IKZF2) (IKZF2): A (0% ≤ substrate protein remaining % ≤ 80%)
substrate protein remaining % (GSPT1) (GSPT1): A (0% ≤ substrate protein remaining % ≤ 80%)
substrate protein remaining % (WEE1) (WEE1): A (0% ≤ substrate protein remaining % ≤ 80%)
substrate protein remaining % (CK1a) (CK1α): B (80%< substrate protein remaining %≤ 100%)
substrate protein remaining % (IKZF 1) (IKZF1): A (0% ≤ substrate protein remaining % ≤ 80%)
substrate protein remaining % (IKZF3) (IKZF3): B (80%< substrate protein remaining %≤ 100%)

O=C1CCC(N2Cc3ccc(C(=O)N4CCC(N5CCN(C(c6ccccc6)c6ccccc6)CC5)CC4)cc3C2=O)C(=O)N1 (centres unmarked)
Inhibition Rate at 0.5 µM (%) (CRBN): a2 (20% < a2 ≤ 30%)
Inhibition Rate at 2 µM (%) (CRBN): a5 (53% < a5 ≤ 60%)
substrate protein remaining % (IKZF2) (IKZF2): A (0% ≤ substrate protein remaining % ≤ 80%)
substrate protein remaining % (GSPT1) (GSPT1): A (0% ≤ substrate protein remaining % ≤ 80%)
substrate protein remaining % (WEE1) (WEE1): B (80%< substrate protein remaining %≤ 100%)
substrate protein remaining % (CK1a) (CK1α): A (0% ≤ substrate protein remaining % ≤ 80%)
substrate protein remaining % (IKZF 1) (IKZF1): A (0% ≤ substrate protein remaining % ≤ 80%)
substrate protein remaining % (IKZF3) (IKZF3): B (80%< substrate protein remaining %≤ 100%)

Source: patent publication EP4834897A1, “COMPOUNDS WITH TWO AZAHETEROCYCLES SUBSTITUTED ISOINDOLINONE SKELETON AND USES THEREOF” (dated 2026)
